Data on 2 molecules can be found in patent US20230068783A1 (TAVOTEK BIOTHERAPEUTICS HONG KONG, published 2023).

By UniProt entry, the sequences of proteins in these tests, tags left out. Where a name states a change or a piece, a line headed by the entry shows the natural chain unless it says otherwise.
UniProt P01584: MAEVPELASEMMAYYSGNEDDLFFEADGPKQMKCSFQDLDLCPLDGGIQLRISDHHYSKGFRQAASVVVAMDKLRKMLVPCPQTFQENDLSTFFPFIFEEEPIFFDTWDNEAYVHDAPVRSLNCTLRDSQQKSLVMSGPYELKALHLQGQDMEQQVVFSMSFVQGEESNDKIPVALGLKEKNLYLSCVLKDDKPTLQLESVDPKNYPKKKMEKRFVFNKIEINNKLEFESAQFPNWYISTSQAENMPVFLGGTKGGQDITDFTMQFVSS

Test [1] concerns the target recombinant human IL-1β (R&D systems) (human, UniProt P01584, in part). Briefly: cell-based or functional assay.
The target in test [2] is T1, Rhesus monkey IL-1β (Rhesus monkey, UniProt P48090 117-269).
T1 sequence (looked up): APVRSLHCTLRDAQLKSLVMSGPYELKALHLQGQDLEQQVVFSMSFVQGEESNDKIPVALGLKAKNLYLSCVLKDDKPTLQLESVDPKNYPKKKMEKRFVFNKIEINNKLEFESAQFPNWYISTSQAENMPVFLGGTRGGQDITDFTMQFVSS
Briefly: cell-based or functional assay.

Test [3] has as its target T2, human IL-1α (human, UniProt P01583 113-271).
T2 construct: Purified recombinant protein
T2 sequence (looked up): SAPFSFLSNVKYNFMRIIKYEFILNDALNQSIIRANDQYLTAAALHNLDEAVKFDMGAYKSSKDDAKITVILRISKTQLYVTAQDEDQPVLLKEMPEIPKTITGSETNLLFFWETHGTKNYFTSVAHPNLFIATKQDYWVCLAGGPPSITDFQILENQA
Briefly: ELISA with purified recombinant protein. On the procedure: To evaluate the binding specificity, cytokines homologous to IL-1β such as IL-1α were evaluated for binding to humanized antibodies in ELISA-based binding assay with purified recombinant protein.
For orientation: An ELISA detects its analyte on a solid surface through an enzyme-linked reagent.

Positions count from the first letter of the chain named.

B1: TAVO7378 (humanized IgG1 antibody, 304VH1 with 304VL3) (antibody)
heavy: EVQLVESGGGLVQPGGSLRLSCAASGFTFSSFGMHWVRQAPGKGLEWVAYISIGSYTVHYADSVKGRFTISRDNAKNSLYLQMNSLRDEDTAVYYCVRDDYDVTDYTMDYWGQGTTVTVSSASTKGPSVFPLAPSSKSTSGGTAALGCLVKDYFPEPVTVSWNSGALTSGVHTFPAVLQSSGLYSLSSVVTVPSSSLGTQTYICNVNHKPSNTKVDKKV[human IgG1 Fc with changes not listed]
light: DIVMTQTPLSLPVTPGEPASISCKSSQSLLNSRTRKNYLAWYLQKPGQSPQLLIYWASTRESGVPDRFSGSGSGTDFTLKISRVEAEDVGVYYCKQTYNFPTFGQGTKLEIKRTVAAPSVFIFPPSDEQLKSGTASVVCLLNNFYPREAKVQWKVDNALQSGNSQESVTEQDSKDSTYSLSSTLTLSKADYEKHKVYACEVTHQGLSSPVTKSFNRGEC
notes: Humanized IgG1
In the case of B1, in test [1], the “IC50 of blocking human IL-1β-mediated IL-6 release from MRC-5 cells” value was ~0.05 µg/mL and the “IC50 of neutralizing human IL-1β driven reporter gene expression, HEK-Blue IL-1β reporter assay” value is ~0.09 µg/mL. Also, the “IC50 of neutralizing rhesus monkey IL-1β driven reporter gene expression, HEK-Blue IL-1β reporter assay” value in test [2] is ~0.018 µg/mL. Further, in test [3], the binding result is listed as “no binding (tested: 1 ug/mL)”.

B2: TAVO7379 (humanized IgG1 antibody, 304VH1 with 304VL4) (antibody)
heavy: EVQLVESGGGLVQPGGSLRLSCAASGFTFSSFGMHWVRQAPGKGLEWVAYISIGSYTVHYADSVKGRFTISRDNAKNSLYLQMNSLRDEDTAVYYCVRDDYDVTDYTMDYWGQGTTVTVSSASTKGPSVFPLAPSSKSTSGGTAALGCLVKDYFPEPVTVSWNSGALTSGVHTFPAVLQSSGLYSLSSVVTVPSSSLGTQTYICNVNHKPSNTKVDKKV[human IgG1 Fc with changes not listed]
light: B1 light with A19V, I21M
notes: Humanized IgG1
As to B2, in test [1], the “IC50 of blocking human IL-1β-mediated IL-6 release from MRC-5 cells” value was ~0.05 µg/mL and the “IC50 of neutralizing human IL-1β driven reporter gene expression, HEK-Blue IL-1β reporter assay” value was ~0.09 µg/mL. Also, the “IC50 of neutralizing rhesus monkey IL-1β driven reporter gene expression, HEK-Blue IL-1β reporter assay” value in test [2] was ~0.018 µg/mL. In addition, the binding result in test [3] is reported as “no binding (tested: 1 ug/mL)”.
